Measured values reported in patent US20250197436A1, “GALACTOOLIGOSACCHARIDE COMPOSITION” (priority 2022, published 2025).

Test system: microbiota present in the faecal samples
Assay: Faecal fermentation, distribution of oligosaccharides (HPAEC-PAD peak areas)
Details: Example 2 sample, 0 h
Excerpt: HPAEC-PAD (high performance anion exchange chromatography) equipped with a PA-1 column was used for separation of mono- and oligosaccharides of the different samples. […] The samples as used for GPC were 100-fold diluted with DMSO before injection.
The distribution of oligosaccharides in the mixtures was also monitored over this time period using the method described above in relation to Table 2.

OC[C@H]1O[C@@H](O[C@H]2[C@@H](O)[C@@H](CO)O[C@@H](O[C@H]3[C@@H](O)[C@@H](CO)O[C@@H](O[C@H]4[C@H](O)[C@@H](O)C(O)O[C@@H]4CO)[C@@H]3O)[C@@H]2O)[C@H](O)[C@@H](O)[C@H]1O (stereo partly drawn) [Cpd. ID 31, D-Gal-(β1-3)-D-Gal-(β1-3)-D-Gal-(β1-4)-D-Glu]
Peak areas: 12.3
